Laboratory results published in patent publication US6638905B2, “Cloning and recombinant production of CFR receptor(s)” (priority 1993, dated 2003).

Molecular target: T1, hCRF-RA1 (CRF receptor encoded by clone hctCRFR) (Homo sapiens, UniProt P34998)
T1 construct: expressed in transfected cells; host or cells: COSM6 cells, DEAE-dextran transient transfection of clone hctCRFR in pcDNA1
T1 sequence (P34998 24-415): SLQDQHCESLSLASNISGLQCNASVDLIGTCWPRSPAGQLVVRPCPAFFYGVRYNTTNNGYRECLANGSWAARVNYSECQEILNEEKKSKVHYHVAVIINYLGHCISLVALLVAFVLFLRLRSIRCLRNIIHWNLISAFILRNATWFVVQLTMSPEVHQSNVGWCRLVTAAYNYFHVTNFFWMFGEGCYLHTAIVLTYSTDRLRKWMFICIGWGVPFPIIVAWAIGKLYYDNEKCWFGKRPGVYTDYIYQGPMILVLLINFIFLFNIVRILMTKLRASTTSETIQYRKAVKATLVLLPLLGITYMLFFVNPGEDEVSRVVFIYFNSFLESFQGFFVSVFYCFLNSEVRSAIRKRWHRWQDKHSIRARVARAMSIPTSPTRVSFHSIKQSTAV
Assay: Competitive radioreceptor assay: displacement of 125I-(Nle21,Tyr32)-ovine CRF from membranes of COSM6 cells transfected with hctCRFR
Details: read-out: Kd (binding affinity), COSM6 cell membranes
Description: Approximately 10^6 COSM6 cells were transfected with either […] or […] (rat gonadotropin releasing hormone receptor) by the DEAE-dextran method and grown in 150 mm tissue culture dishes. Two days after transfection, the cells were washed twice with 1 ml HDB and were detached by incubation for 15 min at room temperature in 0.5 mM EDTA in HDB. After pelleting, the cells were washed twice with HDB, and then homogenized in 5% sucrose (16 ml/150 mm dish). […] The reaction was terminated by filtration through GF/C (Whatman) filters, prewetted with 1%BSA, 10 mM HEPES, pH 7.5. The filters were washed 4 times with 1 ml 0.1% BSA, 50 mM Tris, pH 7.5. Filter-bound radioactivity, indicating the presence of CRF-R:^125 I-([…],Tyr^32)-ovine CRF complex, was determined by g-scintillation counting.

## ovine CRF
  Kd: 2.3 ± 0.66 nM
